Target: hCA XII (Homo sapiens, UniProt O43570)
Assay: CA inhibition, stopped-flow technique
Assay type: biochemical
Settings: mean from 3 assays, errors ±5–10%

Sequences of proteins named here, by UniProt entry; tags and fusion partners are left off. Residues count along the entry.
UniProt O43570, 25-354: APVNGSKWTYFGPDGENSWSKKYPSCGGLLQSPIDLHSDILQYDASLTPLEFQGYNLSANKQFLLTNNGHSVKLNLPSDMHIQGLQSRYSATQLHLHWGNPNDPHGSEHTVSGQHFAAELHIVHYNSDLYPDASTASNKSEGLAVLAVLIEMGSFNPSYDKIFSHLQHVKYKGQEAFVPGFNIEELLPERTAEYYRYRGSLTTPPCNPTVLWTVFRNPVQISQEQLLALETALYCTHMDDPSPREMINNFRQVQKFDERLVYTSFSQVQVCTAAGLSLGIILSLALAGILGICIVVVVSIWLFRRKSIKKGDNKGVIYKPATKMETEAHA

In the case of `Cc1ccc(C(C)C)c(OCCCCCCCOc2ccc3ccc(=O)oc3c2)c1` [Compound 48, 7-((7-(2-Isopropyl-5-methylphenoxy)heptyl)oxy)-2H-chromen-2-one], the Ki is reported as 9.4 nM.
Work on `C=CCc1ccc(OCc2cn(CCCCCCCCCOc3ccc4ccc(=O)oc4c3)nn2)c(OC)c1` [Compound 33, 7-((9-(4-((4-Allyl-2-methoxyphenoxy)methyl)-1H-1,2,3-triazol-1-yl)nonyl)oxy)-2H-chromen-2-one] yielded a Ki of 294 nM.
`CC1CCC(C(C)C)C(OCCCOc2ccc3ccc(=O)oc3c2)C1` (centres unmarked) [Compound 69, 7-(3-((2-Isopropyl-5-methylcyclohexyl)oxy)propoxy)-2H-chromen-2-one] was tested, and the Ki was 9.1 nM.
For `Cc1ccc(C(C)C)cc1OCc1cn(CCCCCCCCCOc2ccc3ccc(=O)oc3c2)nn1` [Compound 25, 7-((9-(4-((5-Isopropyl-2-methylphenoxy)methyl)-1H-1,2,3-triazol-1-yl)nonyl)oxy)-2H-chromen-2-one], the Ki was 43.3 nM.
In the case of `C=CCc1ccc(OCc2cn(CCCCCCCCCCCCOc3ccc4ccc(=O)oc4c3)nn2)c(OC)c1` [Compound 35, 7-((12-(4-((4-Allyl-2-methoxyphenoxy)methyl)-1H-1,2,3-triazol-1-yl)dodecyl)oxy)-2H-chromen-2-one], the Ki is reported as 284 nM.
With `C=CCc1ccc(OCc2cn(CCCCCCCCCCOc3ccc4ccc(=O)oc4c3)nn2)c(OC)c1` [Compound 34, 7-((10-(4-((4-Allyl-2-methoxyphenoxy)methyl)-1H-1,2,3-triazol-1-yl)decyl)oxy)-2H-chromen-2-one] the Ki was 204 nM.
For `Cc1ccc(C(C)C)c(OCCCCCCCCCCCCOc2ccc3ccc(=O)oc3c2)c1` [Compound 51, 7-((12-(2-Isopropyl-5-methylphenoxy)dodecyl)oxy)-2H-chromen-2-one], the Ki was 8.5 nM.
With `Cc1ccc(C(C)C)cc1OCc1cn(CCCCCCOc2ccc3ccc(=O)oc3c2)nn1` [Compound 23, 7-((6-(4-((5-Isopropyl-2-methylphenoxy)methyl)-1H-1,2,3-triazol-1-yl)hexyl)oxy)-2H-chromen-2-one] the Ki was 295 nM.
With `Cc1ccc(C(C)C)cc1OCCCCCCOc1ccc2ccc(=O)oc2c1` [Compound 55, 7-((6-(5-Isopropyl-2-methylphenoxy)hexyl)oxy)-2H-chromen-2-one] the Ki was 7.7 nM.
In the case of `Cc1ccc(C(C)C)cc1OCc1cn(CCCCCCCCCCOc2ccc3ccc(=O)oc3c2)nn1` [Compound 26, 7-((10-(4-((5-Isopropyl-2-methylphenoxy)methyl)-1H-1,2,3-triazol-1-yl)decyl)oxy)-2H-chromen-2-one], the Ki is reported as 40.4 nM.
In the case of `CC1CCC(C(C)C)C(OCc2cn(CCCCOc3ccc4ccc(=O)oc4c3)nn2)C1` (centres unmarked) [Compound 38, 7-(4-(4-(((2-Isopropyl-5-methylcyclohexyl)oxy)methyl)-1H-1,2,3-triazol-1-yl)butoxy)-2H-chromen-2-one], the Ki is reported as 28.8 nM.
`C=CCc1ccc(OCCCCOc2ccc3ccc(=O)oc3c2)c(OC)c1` [Compound 62, 7-(4-(4-Allyl-2-methoxyphenoxy)butoxy)-2H-chromen-2-one] gave a Ki of 6.7 nM.
In the case of `Cc1ccc(C(C)C)c(OCCCOc2ccc3ccc(=O)oc3c2)c1` [Compound 45, 7-(3-(2-Isopropyl-5-methylphenoxy)propoxy)-2H-chromen-2-one], the Ki is reported as 8.1 nM.
Compound `CC1CCC(C(C)C)C(OCc2cn(CCCOc3ccc4ccc(=O)oc4c3)nn2)C1` (centres unmarked) [Compound 37, 7-(3-(4-(((2-Isopropyl-5-methylcyclohexyl)oxy)methyl)-1H-1,2,3-triazol-1-yl)propoxy)-2H-chromen-2-one] has a Ki of 411 nM.
With `CC1CCC(C(C)C)C(OCc2cn(CCCCCCCCCOc3ccc4ccc(=O)oc4c3)nn2)C1` (centres unmarked) [Compound 41, 7-((9-(4-(((2-Isopropyl-5-methylcyclohexyl)oxy)methyl)-1H-1,2,3-triazol-1-yl)nonyl)oxy)-2H-chromen-2-one] the Ki was 22.3 nM.
`CC1CCC(C(C)C)C(OCc2cn(CCCCCCCCCCOc3ccc4ccc(=O)oc4c3)nn2)C1` (centres unmarked) [Compound 42, 7-((10-(4-(((2-Isopropyl-5-methylcyclohexyl)oxy)methyl)-1H-1,2,3-triazol-1-yl)decyl)oxy)-2H-chromen-2-one] gave a Ki of 22.6 nM.
In the case of `Cc1ccc(C(C)C)cc1OCc1cn(CCCCCCCCCCCCOc2ccc3ccc(=O)oc3c2)nn1` [Compound 27, 7-((12-(4-((5-Isopropyl-2-methylphenoxy)methyl)-1H-1,2,3-triazol-1-yl)dodecyl)oxy)-2H-chromen-2-one], the Ki is reported as 40.4 nM.
In the case of `C=CCc1ccc(OCCCCCCCCCCOc2ccc3ccc(=O)oc3c2)c(OC)c1` [Compound 66, 7-((10-(4-Allyl-2-methoxyphenoxy)decyl)oxy)-2H-chromen-2-one], the Ki is reported as 56.8 nM.
`Cc1ccc(C(C)C)c(OCCCCCCOc2ccc3ccc(=O)oc3c2)c1` [Compound 47, 7-((6-(2-Isopropyl-5-methylphenoxy)hexyl)oxy)-2H-chromen-2-one] was tested, and the Ki was 7.7 nM.
In the case of `Cc1ccc(C(C)C)cc1OCc1cn(CCCCCCCOc2ccc3ccc(=O)oc3c2)nn1` [Compound 24, 7-((7-(4-((5-Isopropyl-2-methylphenoxy)methyl)-1H-1,2,3-triazol-1-yl)heptyl)oxy)-2H-chromen-2-one], the Ki is reported as 73.1 nM.
With `Cc1ccc(C(C)C)c(OCc2cn(CCCCCCCCCCOc3ccc4ccc(=O)oc4c3)nn2)c1` [Compound 18, 7-((10-(4-((2-Isopropyl-5-methylphenoxy)methyl)-1H-1,2,3-triazol-1-yl)decyl)oxy)-2H-chromen-2-one] the Ki was 27.4 nM.
For `C=CCc1ccc(OCc2cn(CCOc3ccc4ccc(=O)oc4c3)nn2)c(OC)c1` [Compound 28, 7-(2-(4-((4-Allyl-2-methoxyphenoxy)methyl)-1H-1,2,3-triazol-1-yl)ethoxy)-2H-chromen-2-one], the Ki was 73.2 nM.
Work on `Cc1ccc(C(C)C)c(OCc2cn(CCCCCCCCCCCCOc3ccc4ccc(=O)oc4c3)nn2)c1` [Compound 19, 7-((12-(4-((2-Isopropyl-5-methylphenoxy)methyl)-1H-1,2,3-triazol-1-yl)dodecyl)oxy)-2H-chromen-2-one] yielded a Ki of 82.3 nM.
Compound `CC1CCC(C(C)C)C(OCc2cn(CCCCCCCCCCCCOc3ccc4ccc(=O)oc4c3)nn2)C1` (centres unmarked) [Compound 43, 7-((12-(4-(((2-Isopropyl-5-methylcyclohexyl)oxy)methyl)-1H-1,2,3-triazol-1-yl)dodecyl)oxy)-2H-chromen-2-one] has a Ki of 42.2 nM.
Work on `C=CCc1ccc(OCCOc2ccc3ccc(=O)oc3c2)c(OC)c1` [Compound 60, 7-(2-(4-Allyl-2-methoxyphenoxy)ethoxy)-2H-chromen-2-one] yielded a Ki of 8.3 nM.
In the case of `Cc1ccc(C(C)C)c(OCc2cn(CCCCCCCCCOc3ccc4ccc(=O)oc4c3)nn2)c1` [Compound 17, 7-((9-(4-((2-Isopropyl-5-methylphenoxy)methyl)-1H-1,2,3-triazol-1-yl)nonyl)oxy)-2H-chromen-2-one], the Ki is reported as 29.5 nM.
`Cc1ccc(C(C)C)c(OCCCCCCCCCOc2ccc3ccc(=O)oc3c2)c1` [Compound 49, 7-((9-(2-Isopropyl-5-methylphenoxy)nonyl)oxy)-2H-chromen-2-one] was tested, and the Ki was 7.6 nM.
Compound `Cc1ccc(C(C)C)cc1OCCCOc1ccc2ccc(=O)oc2c1` [Compound 53, 7-(3-(5-Isopropyl-2-methylphenoxy)propoxy)-2H-chromen-2-one] has a Ki of 8.1 nM.
For `Cc1ccc(C(C)C)c(OCCCCOc2ccc3ccc(=O)oc3c2)c1` [Compound 46, 7-(4-(2-Isopropyl-5-methylphenoxy)butoxy)-2H-chromen-2-one], the Ki was 8.5 nM.

From publication PMC9933483, “Tail-Approach-Based Design and Synthesis of Coumarin-Monoterpenes as Carbonic Anhydrase Inhibitors and Anticancer Agents” (ACS Omega, 2023)
